The subject of test [1] is Lung adenocarcinoma cell line. In words: Induction of Th17 cells differentiation in mouse Lung adenocarcinoma cell line xenografted in C57BL/6 mouse model assessed as increase in CD4+ Th17 production at 25 mg/kg,ip administrated on day 7 for 12 days by flow cytometry analysis. The following applies: time 12.0 day. It counts as functional, organism-based.
Test [2] concerns Lung adenocarcinoma cell line. In words: Induction of Th17 cells differentiation in mouse Lung adenocarcinoma cell line xenografted in C57BL/6 mouse model assessed as increase in RORC mRNA expression at 25 mg/kg,ip administrated on day 7 for 12 days by qPCR analysis. The class given is functional, organism-based. The following applies: time 12.0 day.

The structures appear in SMILES notation. The source made the active and inactive calls. No cut-off for these calls is given here.

As to `CCS(=O)(=O)c1ccc(CC(=O)Nc2cc(Cl)c(-c3ccc(OC(C)C)c(C#N)c3)c(Cl)c2)cc1`, the outcome in test [1] and in test [2] was Active.
